# System: HEK293T (human)
# Test: Cytotoxicity against human U2OS cells at dual luciferase reporter gene assay EC50 after 24 hrs by MTS assay
row,Structure (SMILES),Activity
1,O=C(/C=C/c1ccc(O)cc1)/C=C/c1ccc(O)cc1,99.2%
2,O=C1/C(=C/c2ccc(O)cc2)CCC/C1=C\c1ccc(O)cc1,105.9%
3,COc1ccc(/C=C2\CC/C(=C\c3ccc(OC)c(OC)c3)C2=O)cc1OC,40%

# Reference: ChEMBL document CHEMBL3102846 (Eur J Med Chem, 2014)
